Molecular target: Acetylcholinesterase (Homo sapiens, UniProt P22303)

Protein sequences, listed by entry. Tags and fused reporters are not part of them. Lines headed by an entry give the natural chain unless they say otherwise; changes in a name come on top.
UniProt P22303: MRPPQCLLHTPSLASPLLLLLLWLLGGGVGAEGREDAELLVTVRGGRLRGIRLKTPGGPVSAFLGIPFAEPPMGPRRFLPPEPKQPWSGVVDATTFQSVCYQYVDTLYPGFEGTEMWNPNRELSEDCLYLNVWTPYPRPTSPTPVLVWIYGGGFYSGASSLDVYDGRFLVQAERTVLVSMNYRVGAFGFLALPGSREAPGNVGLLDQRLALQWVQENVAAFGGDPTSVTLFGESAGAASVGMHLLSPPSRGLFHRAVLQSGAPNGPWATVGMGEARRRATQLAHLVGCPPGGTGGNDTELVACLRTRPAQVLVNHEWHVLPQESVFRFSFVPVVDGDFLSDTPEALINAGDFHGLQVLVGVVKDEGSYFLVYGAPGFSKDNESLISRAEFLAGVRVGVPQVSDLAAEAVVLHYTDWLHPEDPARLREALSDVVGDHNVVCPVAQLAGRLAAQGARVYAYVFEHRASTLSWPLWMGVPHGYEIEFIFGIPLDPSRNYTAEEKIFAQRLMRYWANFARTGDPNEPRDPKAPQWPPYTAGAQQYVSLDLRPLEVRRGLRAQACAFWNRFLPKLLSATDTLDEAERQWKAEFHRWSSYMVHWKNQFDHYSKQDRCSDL

## COc1ccc2cc3[n+](cc2c1OC)CCc1cc2c(cc1-3)OCO2 [BERBERINE]
  IC50: 0.7 µM
